Measured values as given in PubChem BioAssay AID624111 (Johns Hopkins Ion Channel Center, 2012).
The list shows a part of the results, in another mix than the full data. Activity calls are given as the source filed them.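 How the source made its calls: active means duplicate-averaged calcium fluorescence ratio at least three times the standard deviation of buffer wells, a nonspecific response in parental cells; inactive means the rest.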

Assay: nonspecific calcium signal in parental HEK293, confirmation, counter-screen for MrgX1 antagonist project, parental HEK293 cells, Fluo-4 calcium flux (AID 624111)
Settings: parental HEK293, Fluo-4 calcium fluorescence, FDSS; at 10 µM

**Q.** With CN(C)C1(CNC(=O)c2ccc(Cl)c(S(N)(=O)=O)c2)CCCCC1 as the compound, how does the fluorescence ratio F(max-min)/F0 read?
**A.** inactive: 0
